Measured values published in patent publication EP0700301B1, “PEPTIDES AND COMPOUNDS THAT BIND TO ELAM-1” (AFFYMAX TECHNOLOGIES N.V., priority 1993, dated 1994).

Biological target: T1, immobilized ELAM-1 (Homo sapiens, UniProt P16581)
T1 sequence (P16581 22-554): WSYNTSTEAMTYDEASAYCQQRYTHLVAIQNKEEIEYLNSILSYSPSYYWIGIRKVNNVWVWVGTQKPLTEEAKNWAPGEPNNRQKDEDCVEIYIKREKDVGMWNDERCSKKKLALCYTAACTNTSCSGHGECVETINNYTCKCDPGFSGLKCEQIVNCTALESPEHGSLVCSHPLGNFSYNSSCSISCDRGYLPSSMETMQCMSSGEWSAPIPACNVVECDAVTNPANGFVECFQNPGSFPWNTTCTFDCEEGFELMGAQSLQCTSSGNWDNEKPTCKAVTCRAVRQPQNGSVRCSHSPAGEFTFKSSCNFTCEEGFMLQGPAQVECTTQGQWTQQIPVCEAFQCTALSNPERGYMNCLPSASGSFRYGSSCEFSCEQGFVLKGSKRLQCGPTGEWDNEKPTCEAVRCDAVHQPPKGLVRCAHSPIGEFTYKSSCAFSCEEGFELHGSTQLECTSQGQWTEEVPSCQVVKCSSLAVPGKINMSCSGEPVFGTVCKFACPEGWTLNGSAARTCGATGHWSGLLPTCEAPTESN
Test: HL60 cell adhesion assay
Format: cell-based
Design: in a truncated form comprising the complete extracellular domain (amino acids 1 through 554); made in house
Description: By comparing test wells with control wells (no receptor), one can determine whether a peptide binds to ELAM-1 specifically. Peptides found to bind specifically to ELAM-1 were then synthesized as the free peptide (no phage) and tested in an HL60 cell adhesion competition assay. The competition assay was carried out similarly to the ELISA, except that labeled HL60 cells were added in addition to the peptide (the control wells were typically of at least two types: (1) no immobilized ELAM-1; and (2) no peptide; see the Examples). Peptides that block the binding of labeled HL60 cells ELAM-1 are preferred compounds of the invention.
This example describes the results of a cell adhesion assay in which the ability of HL60 cells (a promyelocytic leukemia-60 cell clone that expresses Sle^x and is available from the ATCC) to adhere to immobilized ELAM-1 was tested in the presence of various compounds, including the ELAM-1 blocking peptide of the invention.
The assay requires HL60 cells labeled with tritiated thymidine. […]
After the test compound incubation period, 100 µL of labeled HL60 cells were added to each well, and the microtiter plate was incubated at 4°C for 30 minutes. […] After this incubation, aliquots were removed from each well and placed in scintillation vials; scintillation fluid was added to each vial; and the radioactivity in each aliquot was quantitated by LS counting. […]

blocking of HL60 cell binding that occurred in the absence of added compound (compound at about 200 µM, 4°C, Figure 1): did not exhibit significant blocking | blocking of cell adhesion (concentration of 500 to 1000 µM, subsequent experiments): does block cell adhesion
Substance: monofucosyl monosialyllactose [SLe^x]
